Measurements published in US20210253697A1 (Novo Nordisk, published 2021).

Sequences of proteins named here, by UniProt entry; tags and fusion partners are left off. Residues count along the entry.
UniProt Q9NP99, 21-200 limits assumed: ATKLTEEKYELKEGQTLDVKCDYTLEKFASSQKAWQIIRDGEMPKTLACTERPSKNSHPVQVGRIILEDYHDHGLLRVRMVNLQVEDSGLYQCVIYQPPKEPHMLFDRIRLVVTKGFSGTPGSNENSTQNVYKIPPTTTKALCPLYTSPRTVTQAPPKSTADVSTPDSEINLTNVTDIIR

Legend:
[1] = biological target: T1, human TREM-1 (hTREM-1 protein, SPR analyte of Examples 9 and 11) (human, UniProt Q9NP99 21-200, limits assumed); experiment: SPR, mAb captured, hTREM-1 analyte
T1 construct: Soluble analyte

[2] = biological target: T2, cynomolgus TREM-1 (cTREM-1 protein, SPR analyte of Examples 9 and 11) (cynomolgus monkey); experiment: SPR, mAb captured, cTREM-1 analyte
T2 construct: Soluble analyte; also called cyno TREM1
T2 chain: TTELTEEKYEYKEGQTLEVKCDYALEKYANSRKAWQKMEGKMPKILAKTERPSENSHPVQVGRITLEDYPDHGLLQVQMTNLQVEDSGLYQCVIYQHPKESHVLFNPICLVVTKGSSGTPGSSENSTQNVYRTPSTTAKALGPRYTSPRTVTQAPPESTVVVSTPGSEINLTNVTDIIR

- Kd [1]: 0.63 nM
- koff [1]: 0.0017 s⁻¹
- kon [1]: 2.8e+06 M⁻¹ s⁻¹
- koff [2]: 0.00013 s⁻¹
- kon [2]: 130000 M⁻¹ s⁻¹
B1: mAb 0121 (antibody, V domains shown)
VH: EVQLVESGGGLVQPGGSLKLSCAASGFTFSTYAMHWVRQASGKGLEWVGRIRTKSSNYATYYAASVKGRFTISRDDSKNTAYLQMNSLKTEDTAVYYCVRDMGQRRQFAYWGQGTLVTVSS
VL: DIVMTQSPDSLAVSLGERATINCRASESVDTFDYSFLHWYQQKPGQPPKLLIYRASNLESGVPDRFSGSGSGTDFTLTISSLQAEDVAVYYCQQSNEDPYTFGQGTKLEIK
notes: recombinant; also called 14F113/14F69 hz variant HC T93V; 14F113 hz variant HC T93V
